Apparent affinities of Ab-14 variants for a coronavirus HR2 peptide

Target peptide (SARS-CoV-2 spike, HR2 region): PDVDLGDISGINAS

The variants keep the heavy chain, the linker and the frameworks of Ab-14 (scFv order VH, a (GGGGS)3 linker, VL).
VH: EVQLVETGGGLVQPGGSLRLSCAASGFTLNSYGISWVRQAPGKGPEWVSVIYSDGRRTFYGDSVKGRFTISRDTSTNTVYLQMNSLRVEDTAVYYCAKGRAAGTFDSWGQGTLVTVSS
VL: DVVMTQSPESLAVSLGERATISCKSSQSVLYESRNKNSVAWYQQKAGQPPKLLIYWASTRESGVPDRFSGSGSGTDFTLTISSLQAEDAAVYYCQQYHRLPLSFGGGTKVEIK

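Phage display of a naive human antibody library on the peptide gave the parent. Variants in AAYL50 differ from the parent at up to three CDR positions; double and triple changes were sampled at random. In AlphaSeq, yeast of one mating type display the scFv and yeast of the other type display the target. Mating (16 h, 30 °C) was followed by selection of diploids and sequencing of their barcodes. The ratio of observed to expected reads was calibrated, replicate by replicate, on BCL2-family standards whose Kd was known from biolayer interferometry. The assay was run in three technical replicates.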

Each variant is given by its three light chain CDRs, as the data file delimits them; those of the parent are KSSQSVLYESRNKNSVA, WASTRES, QQYHRLPLS. All variants listed here change L30 of the VL, counted from its first residue. Each Kd is an estimate from the mating assay, the geometric mean of the replicates in which the pair was seen; lower is stronger. "nd" means that the variant was in the library but no mating with the target was seen in any replicate; the authors take this as a sign of poor binding, and no number exists. Three control strains display no target. For library AAYL50, 18% of the pairings with them gave a signal, with a median of 15 µM and one signal in twenty below 970 nM, so weak values seen in few replicates may be background. Parent in this assay: reference entry 4.4 nM, copy in this library 48 nM.

Variant KSSQSVRYESRNKNSVN, WASTRES, QQYHRLPLS showed nd (0 of 3 replicates).
Variant KSSQSVMVESRNKNTVA, WASTRES, QQYHRLPLS showed 1.4 µM (3 of 3 replicates).
Variant KSSQSVPTESRNKNSVA, WASTRES, QQYHRLALS showed nd (0 of 3 replicates).
Variant KSSQLVKYESRNKNSVA, WASTREC, QQYHRLPLS showed 60 nM (3 of 3 replicates).
Variant KSSQSVTYESRNKNSGA, WASTRES, QQYHRLPGS showed nd (0 of 3 replicates).
Variant KSSQSVAYESRNKNSVA, WASTRES, QQYHRLPLS showed 4.7 nM (3 of 3 replicates).
Variant KSSQSVRMESRNKNSVA, WASTRES, QQYHRMPLS showed 9.3 nM (3 of 3 replicates).
Variant KSSQSVYYESRNKNSVA, WASTRMS, QQYHRLPLQ showed nd (0 of 3 replicates).
Variant KSSQSVTYESRGKNSVA, WASTRES, QQYHRLSLS showed 7.8 nM (3 of 3 replicates).
Variant ASSQSVDYESRNKNSVG, WASTRES, QQYHRLPLS showed nd (0 of 3 replicates).
Variant KSSQSVFYESRNKNSVA, WAMTRES, QQYHRLPLS showed 310 nM (3 of 3 replicates).
Variant KSSQQVTYESRNKNSVA, WASTRES, QEYHRLPLS showed 3.7 µM (2 of 3 replicates).
Variant IYSQSVKYESRNKNSVA, WASTRES, QQYHRLPLS showed 140 nM (3 of 3 replicates).
Variant KSSQSVYYWSRNKNSVA, WASTRES, QQNHRLPLS showed 680 nM (3 of 3 replicates).
Variant KSSQSVVYESRNKNSVA, WASTRES, QQYFRLPNS showed 4.9 nM (3 of 3 replicates).
Variant KWSWSVQYESRNKNSVA, WASTRES, QQYHRLPLS showed 32 nM (3 of 3 replicates).
Variant KSSQSVHYESRNKNSVA, WASTLES, QQYHRLPLS showed 38 nM (3 of 3 replicates).
Variant KSSQSWQYESRNKNSVA, RASTRES, QQYHRLPLS showed 5.6 nM (3 of 3 replicates).
Variant KSSQMVMYESRCKNSVA, WASTRES, QQYHRLPLS showed 31 nM (3 of 3 replicates).
Variant KSSQSVTYESRNKNSVA, WAITRDS, QQYHRLPLS showed nd (0 of 3 replicates).
Variant KSSQSVGYASRNKNSVA, WASTRES, QQYHRLPLS showed 16 nM (3 of 3 replicates).
Variant KSSQSVWYESRCKNSVA, WTSTRES, QQYHRLPLS showed 46 nM (3 of 3 replicates).
Variant KSSQPVNYESRNKNSVA, WASTRES, QQYKRLPLS showed 540 nM (3 of 3 replicates).
Variant KSSQSVPYQSRNKNSVA, WESTRES, QQYHRLPLS showed 440 nM (3 of 3 replicates).
Variant KSSQSVYIESNNKNSVA, WASTRES, QQYHRLPLS showed 6.3 nM (3 of 3 replicates).
Variant KSSRSVKYESRNKNSVA, WASTTES, QQYHRLPLS showed nd (0 of 3 replicates).
Variant KSSQSVCYESRNKNSVA, WASTRES, QQYHRLPLS showed 19 nM (3 of 3 replicates).
Variant KSSQSVVYESRGKNSVF, WASTRES, QQYHRLPLS showed nd (0 of 3 replicates).
Variant KSSQSVVYESRNKNSVA, QASTRES, QQYHRLPLS showed 2.3 nM (3 of 3 replicates).
Variant KSSQSVPYESRNKNSVH, WASTRES, QEYHRLPLS showed 28 µM (1 of 3 replicates).
Variant KSSQSVFYESRNKNSVA, VASHRES, QQYHRLPLS showed 9.0 µM (3 of 3 replicates).
Variant KSSQTVVYESRNKNSVA, WASTRES, QQYHRLPLS showed 14 nM (3 of 3 replicates).
Variant KSLQSVCYESRNKNSVA, WASTRES, QQYHRLPLS showed 28 nM (3 of 3 replicates).
Variant KSSQSVQYESRNKNSGA, WASTRES, QQYHRLPLS showed nd (0 of 3 replicates).
Variant KSSQSKPYESRNKNRVA, WASTRES, QQYHRLPLS showed 340 nM (1 of 3 replicates).
Variant KSSQSVAYESRNKNSVA, WSSTRES, QQHHRLPLS showed 94 nM (3 of 3 replicates).
Variant GSSQSVEYESRNKNTVA, WASTRES, QQYHRLPLS showed 130 µM (1 of 3 replicates).
Variant KSSQSVEYESRNKNSVA, WASTRES, QQYNLLPLS showed 70 nM (3 of 3 replicates).
Variant TSSQSVAYESLNKNSVA, WASTRES, QQYHRLPLS showed 42 nM (3 of 3 replicates).
Variant KSSQSVDYESRNKSSVA, WASTRES, QQYARLPLS showed nd (0 of 3 replicates).

Excerpt, the first 5 entries:

CDR-L1	CDR-L2	CDR-L3	Kd	replicates with signal
KSSQSVRYESRNKNSVN	WASTRES	QQYHRLPLS	nd	0 of 3
KSSQSVMVESRNKNTVA	WASTRES	QQYHRLPLS	1.4 µM	3 of 3
KSSQSVPTESRNKNSVA	WASTRES	QQYHRLALS	nd	0 of 3
KSSQLVKYESRNKNSVA	WASTREC	QQYHRLPLS	60 nM	3 of 3
KSSQSVTYESRNKNSGA	WASTRES	QQYHRLPGS	nd	0 of 3

From the AlphaSeq antibody data of Engelhart et al. 2022 (doi:10.1038/s41597-022-01779-4), copy in the FLAb collection.